Patent publication US8969294B2 (Istituto di Recerche di Biologia Molecolare P. Angeletti …, priority 2008, dated 2015)

Sequences of proteins named here, by UniProt entry; tags and fusion partners are left off. Residues count along the entry.
UniProt P43220, 24-463, species assumed: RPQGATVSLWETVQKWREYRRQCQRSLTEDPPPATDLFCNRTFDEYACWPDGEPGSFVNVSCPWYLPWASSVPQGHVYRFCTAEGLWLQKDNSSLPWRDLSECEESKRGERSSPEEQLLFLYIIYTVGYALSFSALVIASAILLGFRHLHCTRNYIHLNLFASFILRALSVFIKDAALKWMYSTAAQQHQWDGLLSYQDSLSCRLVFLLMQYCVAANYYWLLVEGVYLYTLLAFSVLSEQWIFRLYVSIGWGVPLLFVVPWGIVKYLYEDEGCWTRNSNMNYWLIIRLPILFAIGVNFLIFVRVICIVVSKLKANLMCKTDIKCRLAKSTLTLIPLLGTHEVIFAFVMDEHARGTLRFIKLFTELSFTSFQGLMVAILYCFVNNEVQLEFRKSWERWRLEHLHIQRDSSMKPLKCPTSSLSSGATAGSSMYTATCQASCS
UniProt P47871, 26-477: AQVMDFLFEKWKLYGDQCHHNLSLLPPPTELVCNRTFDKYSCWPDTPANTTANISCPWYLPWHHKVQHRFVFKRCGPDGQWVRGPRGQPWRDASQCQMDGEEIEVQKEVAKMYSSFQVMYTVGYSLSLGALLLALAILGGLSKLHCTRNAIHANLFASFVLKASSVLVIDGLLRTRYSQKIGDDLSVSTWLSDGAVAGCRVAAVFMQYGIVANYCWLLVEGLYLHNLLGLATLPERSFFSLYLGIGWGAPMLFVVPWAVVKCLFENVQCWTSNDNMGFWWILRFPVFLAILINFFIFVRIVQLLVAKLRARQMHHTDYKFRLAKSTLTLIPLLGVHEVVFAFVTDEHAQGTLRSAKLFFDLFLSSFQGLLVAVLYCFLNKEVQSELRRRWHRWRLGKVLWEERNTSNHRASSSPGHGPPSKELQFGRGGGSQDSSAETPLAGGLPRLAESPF

What was measured:
[1] = target: GLP-1 receptor (Homo sapiens, UniProt P43220); assay: Functional assay, cAMP synthesis: luciferase reporter in HEK293 cells co-transfected with GLP-1 receptor
[2] = target: glucagon receptor (Homo sapiens, UniProt P47871); assay: Functional assay, cAMP synthesis: luciferase reporter in HEK293 cells co-transfected with glucagon receptor

With `CCCCCCCCCCCCCCCC(=O)NCCCC[C@H](NC(=O)[C@H](CC(=O)O)NC(=O)[C@H](CO)NC(=O)[C@@H](NC(=O)[C@H](Cc1ccccc1)NC(=O)[C@@H](NC(=O)CNC(=O)[C@H](CCC(N)=O)NC(=O)[C@H](CO)NC(=O)C(C)(C)c1c[nH]cn1)[C@@H](C)O)[C@@H](C)O)C(=O)N[C@@H](CO)C(=O)N[C@@H](CCCCN)C(=O)N[C@@H](Cc1ccc(O)cc1)C(=O)N[C@@H](CC(C)C)C(=O)N[C@@H](CC(=O)O)C(=O)N[C@H]1CCC(=O)NCCCC[C@@H](C(=O)N[C@@H](CC(=O)O)C(=O)N[C@@H](Cc2ccccc2)C(=O)N[C@H](C(=O)N[C@@H](CCC(N)=O)C(=O)N[C@@H](Cc2c[nH]c3ccccc23)C(=O)N[C@@H](CC(C)C)C(=O)N[C@@H](CCSC)C(=O)N[C@@H](CC(N)=O)C(=O)N[C@H](C(N)=O)[C@@H](C)O)C(C)C)NC(=O)[C@H](C)NC(=O)[C@H](CCCNC(=N)N)NC(=O)[C@H](CCCNC(=N)N)NC1=O` [DMIA1, K10(C16), [E16/K20]-Gluc Amide] the EC50 [1] was 15 pM.

`CCCCCCCCCCCCCCCC(=O)N[C@@H](CCC(=O)N[C@@H](CCC(=O)NCCCC[C@H](NC(=O)[C@H](CC(=O)O)NC(=O)[C@H](CO)NC(=O)[C@@H](NC(=O)[C@H](Cc1ccccc1)NC(=O)[C@@H](NC(=O)CNC(=O)[C@H](CCC(N)=O)NC(=O)[C@H](CO)NC(=O)C(C)(C)c1c[nH]cn1)[C@@H](C)O)[C@@H](C)O)C(=O)N[C@@H](CO)C(=O)N[C@@H](CCCCN)C(=O)N[C@@H](Cc1ccc(O)cc1)C(=O)N[C@@H](CC(C)C)C(=O)N[C@@H](CC(=O)O)C(=O)N[C@H]1CCC(=O)NCCCC[C@@H](C(=O)N[C@@H](CC(=O)O)C(=O)N[C@@H](Cc2ccccc2)C(=O)N[C@H](C(=O)N[C@@H](CCC(N)=O)C(=O)N[C@@H](Cc2c[nH]c3ccccc23)C(=O)N[C@@H](CC(C)C)C(=O)N[C@@H](CCSC)C(=O)N[C@@H](CC(N)=O)C(=O)N[C@H](C(N)=O)[C@@H](C)O)C(C)C)NC(=O)[C@H](C)NC(=O)[C@H](CCCNC(=N)N)NC(=O)[C@H](CCCNC(=N)N)NC1=O)C(=O)O)C(=O)O` [compound 652] gave an EC50 [1] of 4 pM.

`CCCCCCCCCCCCCCCC(=O)N[C@@H](CCC(=O)NCCCC[C@H](NC(=O)[C@H](CC(=O)O)NC(=O)[C@H](CO)NC(=O)[C@@H](NC(=O)[C@H](Cc1ccccc1)NC(=O)[C@@H](NC(=O)CNC(=O)[C@H](CCC(N)=O)NC(=O)[C@H](CO)NC(=O)C(C)(C)c1c[nH]cn1)[C@@H](C)O)[C@@H](C)O)C(=O)N[C@@H](CO)C(=O)N[C@@H](CCCCN)C(=O)N[C@@H](Cc1ccc(O)cc1)C(=O)N[C@@H](CC(C)C)C(=O)N[C@@H](CC(=O)O)C(=O)N[C@H]1CCC(=O)NCCCC[C@@H](C(=O)N[C@@H](CC(=O)O)C(=O)N[C@@H](Cc2ccccc2)C(=O)N[C@H](C(=O)N[C@@H](CCC(N)=O)C(=O)N[C@@H](Cc2c[nH]c3ccccc23)C(=O)N[C@@H](CC(C)C)C(=O)N[C@@H](CCSC)C(=O)N[C@@H](CC(N)=O)C(=O)N[C@H](C(N)=O)[C@@H](C)O)C(C)C)NC(=O)[C@H](C)NC(=O)[C@H](CCCNC(=N)N)NC(=O)[C@H](CCCNC(=N)N)NC1=O)C(=O)O` [compound 651] was tested, and the EC50 [1] was 6 pM and the EC50 [2] was 19 pM.
